Test results published in paper PMC6933782 (ACS Omega, 2019).

Sequences of proteins named here, by UniProt entry; tags and fusion partners are left off.
UniProt P30989, whole entry: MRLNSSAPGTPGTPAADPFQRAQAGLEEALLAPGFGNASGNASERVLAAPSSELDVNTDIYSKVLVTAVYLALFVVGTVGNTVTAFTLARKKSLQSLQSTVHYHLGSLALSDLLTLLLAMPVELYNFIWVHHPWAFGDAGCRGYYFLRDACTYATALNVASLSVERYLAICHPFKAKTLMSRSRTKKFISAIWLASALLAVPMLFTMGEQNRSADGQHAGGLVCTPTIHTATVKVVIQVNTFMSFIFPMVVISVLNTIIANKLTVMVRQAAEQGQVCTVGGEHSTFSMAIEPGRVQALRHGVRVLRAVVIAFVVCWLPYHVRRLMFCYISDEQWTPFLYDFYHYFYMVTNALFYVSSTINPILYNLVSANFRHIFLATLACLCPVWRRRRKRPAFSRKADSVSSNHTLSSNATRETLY

Assays:
[1] = molecular target: neurotensin receptor 1 (human (endogenous in HT-29)) (UniProt P30989); assay: radioligand binding
[2] = tested on: normal BALB/c mice; assay: PET imaging / biodistribution in normal BALB/c mice; type: in vivo, BALB/c mouse

Substance	IC50 [1] [nM]	biodistribution profile ([2]; 5 MBq i.v.)	uptake in PET ([2]; 5 MBq i.v.)	liver metabolism ([2]; 24 h postinjection)	retention of uptake in the heart and arteries ([2]; up to stated time postinjection)
neurotensin NT(8–13) (peptide)	0.03	–	–	–	–
^64Cu-labeled HSA 10: human serum albumin azo coupled with ^64Cu-labeled NOTA-diazonium salt 5	–	characteristic for a blood pool marker	uptake in the heart and arteries	liver metabolism 24 h postinjection	up to 2 h
natGa-labeled neurotensin NT(8–13) (peptide)	0.04	–	–	–	–
